Entries after “also recorded” stand apart in the source; their conditions may differ.
What was measured:
CD94/NKG2A+ T-cells = assay: HLA-E tetramer binding to T cells of peripheral blood from healthy donors; parameters: species or system human
Description: To further clarify these mechanisms, studies are comtempated to determine whether CD94[NKG2 expressing human T-cells can be influenced by stressed induced changes in target cells. In this context, analysis of peripheral blood from healthy donors verifies that the subset of CD94/NKG2A^+ T-cells also binds to HLA-E/B7sp tetramers.

Sequences of proteins named here, by UniProt entry; tags and fusion partners are left off. A change or cut given only in a name is not applied to a line headed by its entry.
UniProt P26717: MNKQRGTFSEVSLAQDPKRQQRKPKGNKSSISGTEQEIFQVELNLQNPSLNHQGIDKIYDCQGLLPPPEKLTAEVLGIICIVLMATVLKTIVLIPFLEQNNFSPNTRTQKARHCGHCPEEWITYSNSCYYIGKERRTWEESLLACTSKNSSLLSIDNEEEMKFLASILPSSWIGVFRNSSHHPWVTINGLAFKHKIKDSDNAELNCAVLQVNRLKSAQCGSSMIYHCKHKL
UniProt Q13241: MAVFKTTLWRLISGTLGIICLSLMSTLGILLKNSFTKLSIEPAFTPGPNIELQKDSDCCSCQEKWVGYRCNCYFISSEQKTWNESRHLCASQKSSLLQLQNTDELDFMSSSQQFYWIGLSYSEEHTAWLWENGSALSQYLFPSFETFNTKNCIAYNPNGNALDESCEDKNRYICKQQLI
UniProt P26715: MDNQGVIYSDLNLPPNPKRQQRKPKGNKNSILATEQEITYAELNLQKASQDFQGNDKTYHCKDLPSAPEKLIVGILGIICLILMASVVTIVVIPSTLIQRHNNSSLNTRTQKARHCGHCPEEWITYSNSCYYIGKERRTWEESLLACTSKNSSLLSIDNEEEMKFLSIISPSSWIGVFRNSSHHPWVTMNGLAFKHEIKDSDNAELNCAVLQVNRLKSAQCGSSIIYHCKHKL

[1] = system: NK cells expressing CD94/NKG2A (NKL); assay: HLA-E tetramer staining of NK cell lines and freshly isolated NK cells; assay type: binding, human
Experimental: (§1) (a) Ba/F3 cells transfected with CD94 and NKG2A were incubated with HLA-E/B7sp tetramers-(bold line), HLA-E/hsp60sp-tetramers (thin line), or control H-2Db/gp33-tetramers (dashed line). (b) Ba/F3 cells transfected with CD94, NKG2C and DAP-12 were incubated with HLA-E/B7sp-tetramers (bold line), HLA-E/hsp60sp-tetramers (thin line), or control H-2Db/gp33-tetramers (dashed line). (c) The NK cell line NKL was incubated with HLA-E/B7sp-tetramers (bold line), HLA-E/hsp60sp-tetramers (thin line), or control H-2Db/gp33-tetramers (dashed line). (d) HB-120 B-cell hybridoma (anti-MHC class I) was incubated with HLA-E/B7sp-tetramers (bold line), HLA-E/hsp60sp-tetramers (thin line), or control H-2Db/gp33-tetramers (dashed line). All incubations were done at 4° C. for 45 min in PBS supplemented with 1% FCS. […] This is one representative experiment of more than 5 that were conducted.
(§2) K562 (human HLA-class I negative erythroleukemia), and 721.221 (human HLA-class I low B-lymphoblastoid cell) were maintained in RPMI 1640 (Life Technologies, Gaithersburg, Md.) supplemented with 10% heat-inactivated FCS, 2 mM L-glutamine, 100 U/ml penicillin, and 100 μg/ml streptomycin. […]

[2] = system: SF-NK cells, SF-T cells, PB-NK cells; assay: HLA-E tetramer staining of freshly isolated SF and PB cells of RA patients; assay type: binding, human; conditions: for tetramer staining of SF-T cells / tetramer staining of SF-NK cells: RA patient synovial fluid
Description: Freshly isolated cells from PB (left) and SF (right) of a representative RA patient were stained with control tetramers (mouse H2-Kb molecules conjugated to streptavidine-PE, Y-axis on upper contour plots) and HLA-E tetrameric molecules (which were refolded in the presence of a VMAPRTVLL(SEQ ID NO: 3) peptide) conjugated to streptavidine-PE on Y-axis, lower contour plots) and CD56-FITC (X-axis). A gate was set on CD3-Cycrome-negative lymphocytes.
No staining of SF-NK cells or SF-T cells is observed with HLA-E/hsp60sp (upper row, right contour plot and lower row, right contour plot, respectively). Control tetramer staining (mouse H2-Kb molecules conjugated to streptavidine-PE) is shown to the left.
All 17 patients suffered from arthritis of the knee and had received therapeutic aspiration of SF at the time of analysis. RA patients fulfilled the American College of Rheumatology classification criteria for RA (Arnett, Arthritis Rheum. 31:315-324, 1988, incorporated herein by reference). All patients, except one person diagnosed with early oligoarthritis, received disease-modifying antirheumatic drugs. Extra-articular manifestations among the RA patients included diabetes mellitus (1 patient), Raynaud's phenomenon (2 patients), and secondary Sjögren's syndrome (1 patient). Paired samples of SF and PB from patients, and PB from 8 healthy female controls (mean age 52.7 yrs, range 49-61 yrs) were collected into preservative-free heparin and mononuclear cells were isolated by FICOLL-HYPAQUE (Amersham Pharmacia Biotech, Uppsala, Sweden) density gradient centrifugation according to standard protocols.
The HLA-E expression vector for tetramer production was provided by Dr Veronique Braud (Oxford, UK). Tetrameric HLA-E complexes were generated essentially as described previously (Braud et al., Nature 391:795-799, 1991, incorporated herein by reference). Briefly, HLA-E heavy chain, fused with a BirA substrate peptide (bsp) at the c-terminus, and human beta-2 microglobulin (β2m) were overexpressed in E. coli BL21 pLysS, purified from inclusion bodies and solubilized in a 8M urea solution containing DTT. Complexes of HLA-E-bsp, human β2m and synthetic peptide (VMAPRTVLL (SEC ID NO: 11), derived from the HLA-B*0701 leader sequence, Research Genetics, Huntsville, Ala.) were produced by in vitro refolding of the HLA-E-bsp, human β2m and peptide. Refolded complexes were purified by size exclusion chromatography on a Superose 12 column (Amersham Pharmacia Biotech), and subsequently biotinylated using BirA enzyme (Avidity, Denver, Colo.) following the manufacturers' instructions. Free biotin was removed using NAP-5 desalting columns (Amersham Pharmacia Biotech). The degree of biotinylation was approximately 90%, as assesed by a gel-shift assay. Tetramers were generated by mixing biotinylated HLA-E/β2m/peptide monomers with streptavidin-PE (Sigma) at a 4:1 molar ratio.

[3] = system: HB-120 B-cell hybridoma (anti-MHC class I); assay: HLA-E tetramer staining of control pan-HLA class I specific hybridoma; assay type: binding; conditions: HB-120, specific for HLA class I molecules
Experimental: as §1, §2

CD94/NKG2C = target: T1, CD94/NKG2C (Homo sapiens, UniProt P26717+Q13241); assay: HLA-E tetramer binding to Ba/F3 cells co-transfected with CD94, NKG2C and DAP12; conditions: mouse Ba/F3 pro-B cells, 4° C. for 45 min
T1 construct: GFP; expressed in transfected cells; host or cells: mouse Ba/F3 pro-B cells (receptor); E. coli BL21 pLysS (HLA-E and β2m of the tetramer)
Experimental: as §1
K562 (human HLA-class I negative erythroleukemia), and 721.221 (human HLA-class I low B-lymphoblastoid cell) were maintained in RPMI 1640 (Life Technologies, Gaithersburg, Md.) supplemented with 10% heat-inactivated FCS, 2 mM L-glutamine, 100 U/ml penicillin, and 100 μg/ml streptomycin. Two human CD94/NKG2A^+ (but KIR−) cytotoxic NK cell lines (NKL, kindly provided by Dr. M. Robertson, Indiana University School of Medicine, Indianapolis, Ind.), and Nishi (provided by Dr. H. Wakiguchi, Dept of Pediatrics, Kochi Medical School, Japan) were grown in IMDM supplemented with 7% pooled heat-inactivated human AB+ serum, 200 U IL-2/ml (PeproTech Inc, Rocky Hill N.J.), 2 mM L-glutamine, 100 U/ml penicillin, and 100 μg/ml streptomycin (Life Technologies). Ba/F3 cells co-transfected with CD94 and NKG2A, CD94, DAP-12 and NKG2C-GFP or CD94 and DAP-12 have been described previously (Lanier et al., Immunity 6:371-378, 1997, incorporated herein by reference). HB-120 (pan-HLA class I specific hybridoma) was obtained from American Type Culture Collection, Rockville, Md., and was cultured in DMEM supplemented with 10% FCS, 2 mM L-glutamine, sodium pyruvate, HAT, 100 U/ml penicillin, 100 μg/ml streptomycin (Life Technologies). […]

CD94/NKG2A = target: T2, CD94/NKG2A (Homo sapiens, UniProt P26715+Q13241); assay: HLA-E tetramer binding to Ba/F3 cells co-transfected with CD94 and NKG2A; conditions: mouse Ba/F3 pro-B cells; 4° C. for 45 min
T2 construct: expressed in transfected cells; host or cells: mouse Ba/F3 pro-B cells (receptor); E. coli BL21 pLysS (HLA-E and β2m of the tetramer)
Experimental: as §1, §2

| Substance | tetramer binding to T cells (CD94/NKG2A+ T-cells) | tetramer binding to NK cells [1] | tetramer staining of SF-T cells [2] | tetramer staining of SF-NK cells ([2]; freshly isolated cells) | tetramer staining of SF-NK cells ([2]; freshly isolated cells, listed as HLA-E tetramers) | tetramer staining of PB-NK cells ([2]; freshly isolated cells, patient peripheral blood) | tetramer binding to control B cell hybridoma [3] | tetramer binding to CD94/NKG2C/DAP12 transfectants (CD94/NKG2C) | tetramer binding to CD94/NKG2A transfectants (CD94/NKG2A) | tetramer binding to CD94/NKG2C/DAP12 transfectants (CD94/NKG2C; listed as HLA-E/hsp60sp-tetramers) |
| --- | --- | --- | --- | --- | --- | --- | --- | --- | --- | --- |
| HLA-E/B7sp tetramers: biotinylated HLA-E heavy chain, β2m and B7sp peptide monomers mixed with streptavidin-phycoerythrin at a 4:1 molar ratio | binds | confirmed by staining NK-cell lines | a fraction of SF-T cells | brightly stain most SF-NK cells; also recorded: brightly stain most SF-NK-cells | efficiently stained | poorly stained | bound to a similar extent | efficiently bound | efficiently bound |  |
| HLA-E/hsp60sp tetramers: biotinylated HLA-E heavy chain, β2m and hsp60sp peptide monomers mixed with streptavidin-phycoerythrin at a 4:1 molar ratio | no binding could be detected | failed to bind; also recorded: did not bind | No staining | No staining |  |  | bound to a similar extent | failed to bind; also recorded: did not bind | failed to bind | failed to bind |

— patent US20070081991A1, “Compositions and methods for modulation of immune responses” (Pepgen Corporation, priority 2001, published 2007)
